Values quoted from earlier work, collected in patent US20180085452A1, “MATRIX-EMBEDDED TOLERANCE-PROMOTING ADJUVANTS FOR SUBCUTANEOUS IMMUNOTHERAPY” (Tolerogenics S.a.r.l,, priority 2016, published 2018).

Legend:
[1] = 45 mg CMS/kg/day in two divided doses, one to two weeks; 51 of 71 patients; cited from earlier work
[2] = cited from earlier work

Substance | steady state serum salicylate level, mean value [1] [mg/L] | rate of degradation in vivo [2]
choline magnesium trisalicylate [CMS] | 213 ± 10 | –
poly(s-caprolactone) [PCL] | – | 2-3 years
